Target: Sodium-dependent serotonin transporter (Rattus norvegicus, UniProt P31652)
Test: Effect on synaptosomal uptake inhibition of 5-hydroxytryptamine (5-HT)
Assay type: functional

Protein sequences, listed by entry. Tags and fused reporters are not part of them.
UniProt P31652, whole entry: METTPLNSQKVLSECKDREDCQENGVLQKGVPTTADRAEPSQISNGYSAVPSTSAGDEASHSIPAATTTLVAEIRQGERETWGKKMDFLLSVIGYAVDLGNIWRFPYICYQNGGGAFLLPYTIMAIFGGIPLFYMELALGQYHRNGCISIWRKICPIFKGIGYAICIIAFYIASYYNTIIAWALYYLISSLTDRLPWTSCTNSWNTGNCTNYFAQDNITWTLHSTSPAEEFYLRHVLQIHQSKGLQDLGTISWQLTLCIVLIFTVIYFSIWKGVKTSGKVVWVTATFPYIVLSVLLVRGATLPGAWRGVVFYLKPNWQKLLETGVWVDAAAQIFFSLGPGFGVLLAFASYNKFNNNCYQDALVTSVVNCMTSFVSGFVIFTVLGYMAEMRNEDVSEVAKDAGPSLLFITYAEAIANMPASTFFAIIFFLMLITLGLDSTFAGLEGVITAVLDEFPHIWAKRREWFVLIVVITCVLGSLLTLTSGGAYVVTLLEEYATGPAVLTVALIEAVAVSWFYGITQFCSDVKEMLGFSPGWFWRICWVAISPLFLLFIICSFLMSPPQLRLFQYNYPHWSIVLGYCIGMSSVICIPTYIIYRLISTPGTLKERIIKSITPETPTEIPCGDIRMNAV

CN1Cc2c(N)cccc2C(c2ccccc2)C1 (stereo unspecified) [NOMIFENSINE]
IC50: 830 nM
